Reference: patent publication US20050282889A1, “Intracorporeal medicaments for photodynamic treatment of disease” (priority 1996, published 2005)

Test: Absorbance properties of halogenated xanthenes (λmax, α)
Format: physicochemical
Source text: Selected chemical and physical properties (such as chemical constituents at positions X, Y, and Z and functionalities R^1 and R^2, along with molecular weight and photochemical characteristics) of representative halogenated xanthenes are summarized in attached Table 1. Certain general properties of this class of agents are discussed in further detail in U.S. Ser. No. 09/130,041, filed on Aug. 6, 1998, U.S. Ser. No. 09/184,388, filed on Nov. 2, 1998, and U.S. Ser. No. 09/216,787, filed on Dec. 21, 1998, which are herein incorporated by reference in their entirety. […]
Further, as evidenced by the data shown in Table 1 (infra) and in FIG. 2, halogenated xanthenes share common spectroscopic properties, including a high single-photon cross-section extending from approximately 500 nm to 600 nm. […] Such excitation methods provide additional utility in the activation of medicaments formulated from these agents, for example when it is desirable to increase the depth of photoactivation to positions substantially beyond that readily accessible using visible light excitation methods.

Substance: Rose Bengal Lithium Salt
- λmax (nm) EtOH: 559 nm
